Literature values, collected in patent publication US20060150828A1, “Dried infant cereal compositions” (Beech-Nut Nutrition Corporation, priority 2005, published 2006).

Details: storage at 37° C., precooked whole wheat flour containing the iron salt

## Ferric pyrophosphate
  pentane formation (fat oxidation): generated far less pentane
